Target: T1, MMP-1 (Homo sapiens, UniProt P03956)
T1 sequence (P03956 100-469): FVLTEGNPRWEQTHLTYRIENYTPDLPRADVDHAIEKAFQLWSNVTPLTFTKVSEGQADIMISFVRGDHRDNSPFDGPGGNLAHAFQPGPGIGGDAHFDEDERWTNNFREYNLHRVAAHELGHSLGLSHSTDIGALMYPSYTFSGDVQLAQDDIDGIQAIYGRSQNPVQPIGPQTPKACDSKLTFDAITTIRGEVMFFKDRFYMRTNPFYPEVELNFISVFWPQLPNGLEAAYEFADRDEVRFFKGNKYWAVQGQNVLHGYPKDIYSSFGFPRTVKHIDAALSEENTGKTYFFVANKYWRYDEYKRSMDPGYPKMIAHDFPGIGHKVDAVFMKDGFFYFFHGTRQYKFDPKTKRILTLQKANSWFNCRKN
Assay: MMP-1 inhibition, thiopeptide or fluorescent peptide substrate test procedure
Format: biochemical
Conditions: in vitro enzyme inhibition
Experimental: Test Procedures for Measuring MMP-1, MMP-9, and MMP-13 Inhibition
These standard pharmacological test procedures are based on the cleavage of a thiopeptide substrates such as Ac-Pro-Leu-Gly(2-mercapto-4-methyl-pentanoyl)-Leu-Gly-OEt by the matrix metalloproteinases MMP-1, MMP-13 (collagenases) or MMP-9 (gelatinase), which results in the release of a substrate product that reacts calorimetrically with DTNB (5,5′-dithiobis(2-nitro-benzoic acid)). The enzyme activity is measured by the rate of the color increase. The thiopeptide substrate is made up fresh as a 20 mM stock in 100% DMSO and the DTNB is dissolved in 100% DMSO as a 100 mM stock and stored in the dark at room temperature. […] The buffer, enzyme, vehicle or inhibitor, and DTNB/substrate are added in this order to a 96 well plate (total reaction volume of 200 μl) and the increase in color is monitored spectrophotometrically for 5 minutes at 405 nm on a plate reader and the increase in color over time is plotted as a linear line.
Alternatively, a fluorescent peptide substrate is used. […] Upon cleavage of the substrate by an MMP, the fluorescence that is generated is quantitated on the fluorescence plate reader. […] The reaction is read (excitation 340 nm, emission 444 nm) for 10 min. and the increase in fluorescence over time is plotted as a linear line. […]

C=C=CCOc1ccc(S(=O)(=O)N(C)C(C(=O)NO)C(C)C)cc1 (stereo not shown) [Example 16, 2-[{[4-(2,3-Butadienyloxy)phenyl]sulfonyl}(methyl)amino]-N-hydroxy-3-methylbutanamide]
IC50: 138 nM

From patent publication US7282496B2, “Allenic aryl sulfonamide hydroxamic acids as matrix metalloproteinase and TACE inhibitors” (Wyeth Holdings Corporation, priority 2001, dated 2007)
